Assay results from publication PMC11163988, “Cloning, expression, and purification of an α-carbonic anhydrase from Toxoplasma gondii to unveil its kinetic parameters and anion inhibition profile” (Journal of Enzyme Inhibition and Medicinal Chemistry, 2024).

By UniProt entry, the sequences of proteins in these tests, tags left out. Residues count along the entry.
UniProt S8F479, 486-829 limits assumed: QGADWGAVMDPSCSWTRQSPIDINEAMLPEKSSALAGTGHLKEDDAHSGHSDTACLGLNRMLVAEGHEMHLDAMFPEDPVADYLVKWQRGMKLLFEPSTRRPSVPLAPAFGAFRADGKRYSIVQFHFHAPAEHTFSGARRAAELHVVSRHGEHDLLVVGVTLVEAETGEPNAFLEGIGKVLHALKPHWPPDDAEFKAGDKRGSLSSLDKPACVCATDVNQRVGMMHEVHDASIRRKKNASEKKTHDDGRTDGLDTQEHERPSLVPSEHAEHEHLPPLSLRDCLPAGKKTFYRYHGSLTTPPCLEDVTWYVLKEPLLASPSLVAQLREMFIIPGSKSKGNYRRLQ

Molecular target: Tg_CA (Toxoplasma gondii α-CA) (Toxoplasma gondii, UniProt S8F479)
Type: biochemical
Conditions: pH 7.5; read-out: KI (mM) Tg_CAα

fluorosulfonate [FSO3^–] gave a Ki of 2.7 mM.
